{"source": "patent US7879861B2", "about": "“Combi-molecules having EGFR and DNA targeting properties” (priority 2005, dated 2011)", "molecular_target": "EGFR (Homo sapiens, UniProt P00533)", "experiment": "Reversibility of EGFR autophosphorylation inhibition in MDA-MB-468 cells (washout, 8 h)", "assay_type": "cell-based", "set-up": "EGF-induced EGFR autophosphorylation in MDA-MB-468 cells; endogenous in cells; host or cells: MDA-MB-468 (ATCC)", "data": [{"compound": "Nc1ccc2ncnc(Nc3cccc(Br)c3)c2c1", "note": "[ZR01, reference compound]", "values": [{"measurement": "mode of EGFR inhibition (reversible / irreversible)", "value": "reversible inhibitor"}, {"measurement": "EGF-dependent EGFR autophosphorylation immediately after drug exposure", "setting": "2 μM, 2 h", "value": "completely suppressed"}]}]}
